# Source: patent publication US10596270B2, “Anti-folate receptor antibody conjugates, compositions comprising anti-folate receptor antibody conjugates, and methods of making and using anti-folate receptor antibody conjugates” (Sutro Biopharma, Inc., priority 2017, dated 2020)
# B1: ADC Molecule 21: IMGN853 (mirvetuximab soravtansine) surrogate expressed in CHO cells and conjugated to sulfo-SPDB-DM4 (conjugate, chains of the INN, looked up)
# heavy: QVQLVQSGAEVVKPGASVKISCKASGYTFTGYFMNWVKQSPGQSLEWIGRIHPYDGDTFYNQKFQGKATLTVDKSSNTAHMELLSLTSEDFAVYYCTRYDGSRAMDYWGQGTTVTVSSASTKGPSVFPLAPSSKSTSGGTAALGCLVKDYFPEPVTVSWNSGALTSGVHTFPAVLQSSGLYSLSSVVTVPSSSLGTQTYICNVNHKPSNTKVDKKV[human IgG1 Fc left out here]
# light: DIVLTQSPLSLAVSLGQPAIISCKASQSVSFAGTSLMHWYHQKPGQQPRLLIYRASNLEAGVPDRFSGSGSKTDFTLTISPVEAEDAATYYCQQSREYPYTFGGGTKLEIKRTVAAPSVFIFPPSDEQLKSGTASVVCLLNNFYPREAKVQWKVDNALQSGNSQESVTEQDSKDSTYSLSSTLTLSKADYEKHKVYACEVTHQGLSSPVTKSFNRGEC
# modifications: sulfo-SPDB-DM4 payload
# Legend:
# [1] = Drug linkage stability: released free drug in human plasma; type: in vitro ADME; conditions: released free drug quantitated
# From the text: (§1) Free drug (II) then appears to undergo further metabolism over time.
# Igrov1 cells [2] = assay: In vitro cell killing (ADCs, free drugs), Igrov1 cells; type: cell-based
# [3] = Pharmacokinetics of ADCs in non-tumor bearing SCID Beige mice; conditions: single 5 mg/kg IV bolus, 21 days
# A549 cells [4] = assay: In vitro cell killing (ADCs, free drugs), FolRα-negative A549 cells; type: cell-based; conditions: for EC50 / Span: NK = No Killing
# [5] = Drug linkage stability: released free drug in cynomolgous monkey plasma; type: in vitro ADME, cynomolgus monkey; conditions: released free drug quantitated
# From the text: as §1
# Igrov1 cells [6] = assay: ADC cell killing in presence of excess un-conjugated naked antibody, Igrov1 cells; type: cell-based
# OVCAR3 cells [7] = assay: In vitro cell killing (ADCs), OVCAR3 cells; type: cell-based, human; conditions: OVCAR3 (FolRα positive), ADC alone; Table 25
# OVCAR3 cells [8] = assay: ADC cell killing in presence of excess un-conjugated naked antibody, OVCAR3 cells; type: cell-based, human; conditions: OVCAR3, + 0.5 uM un-conjugated antibody (1848-H01 for ADC Molecule 4, Mov19 for ADC Molecule 21)
# A549 cells [9] = assay: ADC cell killing in presence of excess un-conjugated naked antibody, A549 cells; type: cell-based; conditions: A549, + 0.5 uM un-conjugated antibody (1848-H01 for ADC Molecule 4, Mov19 for ADC Molecule 21); NK = No Killing
# [10] = Igrov1 (FolRα positive), ADC alone, Table 25
# [11] = A549 (FolRα negative), ADC alone, Table 25
# [12] = Igrov1, + 0.5 uM un-conjugated antibody (1848-H01 for ADC Molecule 4, Mov19 for ADC Molecule 21)
molecule,measurement,setting,value
B1,drug linkage stability in human plasma,[1],rapidly cleaved
same,EC50,Igrov1 cells [2]; [10],3.9 nM
same,Span,Igrov1 cells [2]; [10],87%
same,Span,"Igrov1 cells [2]; Igrov1 cells, Table 26",85%
same,EC50,"Igrov1 cells [2]; Igrov1 cells, Table 26, * = estimated EC50 based on incomplete titration",~4.4 nM
same,AUC(0-all) ± SEM,[3],447 ± 8 µg·days/mL
same,AUC(0-∞),[3],510 µg·days/mL
same,C0,[3],115 µg/mL
same,CL,[3],9.8 mL/day/kg
same,Cmax ± SE,[3],113 ± 4 µg/mL
same,T1/2,[3],182 h
same,VSS,[3],0.0952 L/kg
same,EC50,A549 cells [4]; [11],7.4 nM
same,Span,A549 cells [4]; [11],79%
same,EC50,"A549 cells [4]; A549 cells, Table 26, * = estimated EC50 based on incomplete titration",~9 nM
same,Span,"A549 cells [4]; A549 cells, Table 26",71%
same,cell killing on FolRα negative A549 cells,A549 cells [4]; in words,potent non-specific cell killing was observed; also recorded: cytotoxic activity on both negative- and positive-FolRα cell lines
same,drug linkage stability in cyno plasma,[5],rapidly cleaved
same,shift of EC50 by naked antibody on Igrov1 cells,Igrov1 cells [6],about 3 fold
same,EC50,Igrov1 cells [6]; [12],~11 nM
same,Span,Igrov1 cells [6]; [12],80%
same,EC50,OVCAR3 cells [7],7.9 nM
same,Span,OVCAR3 cells [7],100%
same,EC50,OVCAR3 cells [8],10 nM
same,Span,OVCAR3 cells [8],99%
same,EC50,A549 cells [9],7 nM
same,Span,A549 cells [9],81%

# Entries after “also recorded” stand apart in the source; their conditions may differ.
